# Yeast mating assay 2: variants of the scFv Ab-95

The measurements come from Engelhart et al. 2022 (doi:10.1038/s41597-022-01779-4) through the FLAb antibody collection.

All variants were tested on one target, the spike HR2 peptide PDVDLGDISGINAS (SARS-CoV-2).

Ab-95 is the parent antibody, in scFv form: VH, then three GGGGS repeats, then VL. The heavy chain is unchanged in all variants.
VH: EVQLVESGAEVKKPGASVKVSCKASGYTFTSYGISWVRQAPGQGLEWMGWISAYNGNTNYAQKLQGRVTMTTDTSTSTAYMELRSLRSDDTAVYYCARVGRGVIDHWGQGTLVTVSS
VL: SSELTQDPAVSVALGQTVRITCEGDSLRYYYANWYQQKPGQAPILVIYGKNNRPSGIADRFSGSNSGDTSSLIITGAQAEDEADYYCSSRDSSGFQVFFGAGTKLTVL

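The parent was found by panning a naive human phage display library on the peptide. Variants in AAYL52 differ from the parent at up to three CDR positions; double and triple changes were sampled at random. The assay is AlphaSeq: two haploid yeast populations carry antibody and antigen on their surface. Binding brings cells together so that they mate, and sequencing counts the barcode pairs among the diploids. The ratio of observed to expected reads was calibrated, replicate by replicate, on BCL2-family standards whose Kd was known from biolayer interferometry. There are three technical replicates.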

Substitutions are numbered in sequence along the VL above, starting at 1 (not Kabat). Numbers give log10(Kd / nM), so 0 is 1 nM and 3 is 1 µM. Smaller is tighter. A pair that was not seen in that replicate is written "ND"; this usually means weak binding, but a binder can also be missed. Empty control strains, which show no peptide, gave a signal in 28% of pairings with library AAYL52; the median was 3.91 and 95% of these signals were weaker than 2.90. No background was subtracted. The control count says in how many pairings with the empty strains this scFv gave a signal, with their mean in brackets.

{"changes": "R28Q+P54N+G94T", "replicates, log10 nM": "4.01 / 3.16 / 4.54", "empty controls": "6/9 (4.31)"}
{"changes": "A32M+S89A+Q96D", "replicates, log10 nM": "3.79 / 3.36 / ND", "empty controls": "1/9 (4.70)"}
{"changes": "G24I+S55L+F98I", "replicates, log10 nM": "ND / 5.28 / ND", "empty controls": "1/9 (2.96)"}
{"changes": "D25Q+L27N+G94E", "replicates, log10 nM": "ND / ND / ND", "empty controls": "0/9"}
{"changes": "R53G+S55E+D91I", "replicates, log10 nM": "ND / ND / ND", "empty controls": "1/9 (4.38)"}
{"changes": "S26Y+Y31D+G94Q", "replicates, log10 nM": "3.25 / 2.78 / 2.67", "empty controls": "1/9 (4.23)"}
{"changes": "R53E+S55K+S88P", "replicates, log10 nM": "ND / ND / ND", "empty controls": "2/9 (4.19)"}
{"changes": "G24W+Y29V+K50R", "replicates, log10 nM": "3.62 / 4.68 / ND", "empty controls": "4/9 (3.80)"}
{"changes": "E23R+G49T", "replicates, log10 nM": "4.04 / 3.39 / 3.86", "empty controls": "6/9 (4.97)"}
{"changes": "G24E+S26P+Y31G", "replicates, log10 nM": "ND / ND / 2.96", "empty controls": "1/9 (4.63)"}
{"changes": "A32P+N52C+P54Y", "replicates, log10 nM": "ND / ND / 4.46", "empty controls": "3/9 (3.97)"}
{"changes": "S26K+R90K+Q96C", "replicates, log10 nM": "ND / 4.70 / ND", "empty controls": "2/9 (3.48)"}
{"changes": "R28T+Y29K+N52M", "replicates, log10 nM": "2.24 / 2.41 / 1.99", "empty controls": "3/9 (3.59)"}
{"changes": "N33F+S55A+V97P", "replicates, log10 nM": "ND / 3.84 / 3.10", "empty controls": "5/9 (4.18)"}
{"changes": "N52D+P54S+G94K", "replicates, log10 nM": "ND / ND / ND", "empty controls": "0/9"}
{"changes": "K50N+G94V", "replicates, log10 nM": "2.43 / 2.64 / 1.96", "empty controls": "4/9 (4.58)"}
{"changes": "P54N+S89I+R90T", "replicates, log10 nM": "ND / 5.12 / ND", "empty controls": "2/9 (4.36)"}
{"changes": "G24S+S26D+G49M", "replicates, log10 nM": "3.47 / ND / 4.28", "empty controls": "4/9 (3.46)"}
{"changes": "L27P+R53F+F95A", "replicates, log10 nM": "4.04 / ND / ND", "empty controls": "5/9 (3.84)"}
{"changes": "P54A+S89Q+D91W", "replicates, log10 nM": "3.91 / ND / ND", "empty controls": "0/9"}